These results are taken from ChEMBL document CHEMBL1132143, “Effect of A-ring modifications on the DNA-binding behavior and cytotoxicity of pyrrolo[2,1-c][1,4]benzodiazepines” (J Med Chem, 1999).

By ΔTm is commonly meant the change in melting temperature against a reference sample.

The subject of the experiment is Calf thymus DNA. The experiment is described as follows: Tested for thermal denaturation against CT-DNA at 18 hours. As to conditions: Bos taurus.

`COc1cc2c(cc1O)N=C[C@@H]1CCCN1C2=O`: the thermal shift (ΔTm) is 0.7 °C.
